The values below come from patent US6500927B2 (priority 1998, dated 2002).

For assay [1], the system named is MOR-1 and the variants MOR-1C, MOR-1D, MOR-1E. The settings on record: MOR-1 and variants.
In a further assay the target is T1, MOR-1D (Mus musculus, UniProt P42866).
T1 construct: The cDNA fragments containing the full length MOR-1 or the MOR-1 variants in pCRII-ToPo were subcloned into pcDNA3.1; expressed in transfected cells
In kind it is binding. The settings on record: among MOR-1, MOR-1C, MOR-1E.

In the case of [D-Pen^2, D-Pen^5]enkephalin [DPDPE], the “Competition for 3H-DAMGO binding (in words)” value in assay [1] is “ineffective”. `C[C@@H](NC(=O)[C@@H](N)Cc1ccc(O)cc1)C(=O)NCC(=O)N(C)[C@@H](Cc1ccccc1)C(=O)NCCO` [DAMGO, [D-Ala^2, MePhe^4, Gly(ol)^5]enkephalin]: the “Competition for 3H-DAMGO binding (in words)” value in assay [1] was “bind competitively”. For the compound β-endorphin: endogenous opioid peptide, the “Affinity of MOR-1D compared with the other clones” value in the assay with MOR-1D is “highest affinity”.
